Measured affinities in a library of Ab-14 light chain variants

Reference: Li et al. 2023, doi:10.1038/s41467-023-39022-2. File: FLAb, binding data.

The target is the same throughout: PDVDLGDISGINAS, from the HR2 region of SARS-CoV-2 spike.

The variants keep the heavy chain, the linker and the frameworks of Ab-14 (scFv order VH, a (GGGGS)3 linker, VL).
VH: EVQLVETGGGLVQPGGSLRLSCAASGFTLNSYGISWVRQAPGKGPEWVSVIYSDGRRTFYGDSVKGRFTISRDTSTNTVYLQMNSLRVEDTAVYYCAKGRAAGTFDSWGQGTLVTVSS
VL: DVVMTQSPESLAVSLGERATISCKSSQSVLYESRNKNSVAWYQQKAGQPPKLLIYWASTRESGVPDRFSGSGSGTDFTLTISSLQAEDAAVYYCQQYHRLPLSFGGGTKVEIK

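The parent was found by panning a naive human phage display library on the peptide. These sequences belong to a second round, designed from the earlier measurements on random variants of the parent. Several design methods are mixed in this list. Affinity was read by AlphaSeq, a pooled yeast mating assay with surface-displayed partners. Mating (16 h, 30 °C) was followed by selection of diploids and sequencing of their barcodes. The ratio of observed to expected reads was calibrated, replicate by replicate, on BCL2-family standards whose Kd was known from biolayer interferometry. There are six technical replicates.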

Positions count from residue 1 of the parent VL; S25F puts F in place of S. This list holds designs with at most six substitutions. Values are log10 of the apparent Kd in nM; lower means stronger binding. "nd" marks a missing value. The strain was present, yet no cells mated with the target were sequenced in that replicate, which points to weak or no binding. The authors averaged sequences with at least three values out of six and counted those with two or fewer as poor binders. The parent sequence was in this pool as ten entries: three were never detected, three once, and four in most replicates, with averages from 0.34 to 2.37. Background: pairings of all light chain designs with three empty control strains gave a value in 4% of cases (median 2.64, 5th percentile 1.59). Values in that range, when seen in few replicates, are hard to tell from nonspecific mating. The control count says in how many pairings with the empty strains this scFv gave a signal. Values of this round are not directly comparable with the first-round values of the same sequences.

Variant S25F L30A W56M showed 0.83, 0.87, 0.33, 0.40, 0.72, 0.80 (controls 1 of 18).
Variant S25L V29Y W56N E61S showed 0.10, -0.16, -0.05, -0.56, -0.29, -0.21 (controls 0 of 18).
Variant Q27V L30K K36V S62I L102W showed nd, nd, nd, nd, 2.97, nd (controls 4 of 18).
Variant S25V Q27I V29Y Y31L W56N showed 0.13, -0.08, -0.50, 0.80, 0.49, 0.77 (controls 0 of 18).
Variant S25F V29H W56E showed -0.32, -0.53, -0.59, -0.63, -0.43, -0.32 (controls 0 of 18).
Variant W56A Q95P showed nd, nd, nd, 4.14, nd, nd (controls 0 of 18).
Variant S26L Q27W L30Q R34N W56H S62D showed 0.59, 0.12, 0.54, 0.10, 0.22, 0.44 (controls 2 of 18).
Variant S25V W56E E61M showed 0.03, 0.02, -0.39, 0.01, 0.09, -0.27 (controls 0 of 18).
Variant S25V V29D W56G showed -0.14, -0.37, -0.52, -0.53, -0.59, -0.38 (controls 0 of 18).
Variant Y31N W56D showed 0.83, 1.16, 0.42, 0.44, 0.73, 0.70 (controls 1 of 18).
Variant Q96A L100P showed nd, nd, nd, nd, nd, nd (controls 0 of 18).
Variant S25N W56R showed 2.05, 3.15, 1.66, 2.56, 2.20, 1.92 (controls 1 of 18).
Variant E61H Q95N P101N S103M showed nd, nd, nd, 2.57, nd, 2.05 (controls 1 of 18).
Variant V29W K36F N37W W56E showed 0.50, 0.74, 0.61, 0.66, 0.65, 0.67 (controls 0 of 18).
Variant K24L Q27I V29Y R34P W56E S62E showed 0.64, 0.41, 0.51, 0.55, 0.74, 0.51 (controls 1 of 18).
Variant S25M S26P L30P W56N showed 0.20, 0.08, 0.26, -0.01, 0.00, 0.33 (controls 0 of 18).
Variant N35T K36Q S38N W56G E61C S103Y showed 0.49, 0.83, 0.78, 0.85, 0.76, 0.70 (controls 0 of 18).
Variant S25V V29H K36W W56N showed 0.62, 1.14, 0.28, 0.33, 0.51, 0.73 (controls 0 of 18).
Variant Q27G V29F W56G P101T showed 0.03, -0.08, 0.14, 0.37, -0.44, 0.02 (controls 0 of 18).
Variant S25Y S26Y V29Y W56Q R99L showed 0.99, 0.59, 0.60, 0.75, 0.71, 0.79 (controls 0 of 18).
Variant S25L S33D W56N E61L showed -0.09, -0.28, -0.13, -0.27, 0.03, -0.10 (controls 2 of 18).
Variant S25I V29E S58T showed 0.43, 0.17, 0.08, -0.10, -0.33, -0.11 (controls 0 of 18).
Variant V29Q L30P W56N T59Q E61Y S62Q showed 0.20, 0.06, -0.02, 0.01, 0.27, 0.20 (controls 0 of 18).
Variant S25F N35T K36S S38R W56N A57G showed 0.57, 0.22, -0.08, 0.41, 0.03, 0.26 (controls 1 of 18).
Variant S25L V29E N35C S38N W56A T59Q showed nd, nd, nd, nd, nd, nd (controls 0 of 18).
Variant S26H R34P showed 3.78, 1.59, 1.86, 2.58, 1.89, 2.62 (controls 0 of 18).
Variant S26G N37A showed nd, nd, nd, 1.88, 1.93, 2.20 (controls 0 of 18).
Variant S25L S26P V29W W56N T59E showed -0.16, -0.38, -0.48, -0.41, -0.46, -0.26 (controls 0 of 18).
Variant V29D S33E W56G Q96H Y97S showed 0.55, 0.82, 0.58, 0.87, 0.31, 0.65 (controls 0 of 18).
Variant S25F S26E V29Q W56N E61M showed 0.51, 0.60, 0.45, 0.33, 0.28, 0.34 (controls 1 of 18).
Variant R34M W56K showed nd, nd, nd, nd, nd, nd (controls 0 of 18).
Variant S25L Q27W V29M W56N showed -0.18, 0.12, -0.19, -0.09, -0.03, 0.05 (controls 0 of 18).
Variant R34Y W56D T59I showed 0.66, 0.49, 0.18, 0.50, 0.61, 0.58 (controls 1 of 18).
Variant S25L S26R Q27N V29T N35Q showed 1.04, 1.08, 0.92, 1.17, 1.17, 1.69 (controls 2 of 18).
Variant S25V L30P W56D showed 0.25, 0.05, 0.24, -0.08, 0.31, 0.54 (controls 1 of 18).
Variant L30E Y31T S33D showed nd, nd, nd, nd, nd, nd (controls 0 of 18).
Variant W56S S62T showed 0.54, 0.83, 0.56, 0.38, 0.88, 0.63 (controls 3 of 18).
Variant S25T S26G S28G W56G T59E showed -0.39, -0.60, -0.68, -0.64, -0.78, -0.44 (controls 0 of 18).
Variant S25L S28D V29A W56Q S62V showed -0.14, -0.31, -0.02, -0.36, -0.27, -0.22 (controls 0 of 18).
Variant S25V S28G showed 0.64, 0.33, 0.58, 0.14, 0.59, 0.15 (controls 0 of 18).
Variant S62L S103F showed nd, nd, nd, nd, nd, nd (controls 0 of 18).
Variant S25F L30G W56D T59Q showed -0.20, -0.29, -0.51, -0.36, -0.31, -0.15 (controls 2 of 18).
Variant Q27G S28A V29D S62D showed 0.82, 1.13, 0.99, 0.95, 0.87, 1.10 (controls 0 of 18).
Variant Q27I V29Y S33D W56A showed 0.44, 0.31, 0.21, 0.19, 0.25, 0.30 (controls 4 of 18).
Variant S25L W56N S62E showed -0.46, -0.65, -0.36, -0.58, -0.27, -0.19 (controls 0 of 18).
Variant Q27E L30G R34M W56E E61N showed 0.65, 0.51, 0.84, 0.71, 0.49, 0.57 (controls 1 of 18).
Variant Q27I V29Y Y31I W56E S62Q showed -0.04, -0.06, -0.22, -0.36, -0.15, 0.20 (controls 0 of 18).
Variant L30E Y31M K36A W56D showed 0.61, 0.23, 0.17, 0.09, -0.17, 0.56 (controls 1 of 18).
Variant S25A S28A W56E S62V showed -0.01, 0.39, 0.24, 0.19, -0.06, 0.06 (controls 0 of 18).
Variant S25E V29Y W56G showed 0.14, 0.19, -0.27, -0.05, 0.03, -0.02 (controls 0 of 18).
Variant K24S N35L W56Q showed 0.77, 0.70, 0.83, 0.75, 0.58, 1.03 (controls 0 of 18).
Variant Q27L S38A W56A Q95K showed 0.69, 0.20, 0.02, -0.12, 0.39, 0.88 (controls 2 of 18).

For reference, 5 entries of the list once more:

changes,"log10 Kd, replicates",signal with controls
S25V V29D W56G,"-0.14, -0.37, -0.52, -0.53, -0.59, -0.38",0/18
S25F V29H W56E,"-0.32, -0.53, -0.59, -0.63, -0.43, -0.32",0/18
K24S N35L W56Q,"0.77, 0.70, 0.83, 0.75, 0.58, 1.03",0/18
S25L W56N S62E,"-0.46, -0.65, -0.36, -0.58, -0.27, -0.19",0/18
K24L Q27I V29Y R34P W56E S62E,"0.64, 0.41, 0.51, 0.55, 0.74, 0.51",1/18